Measurements as given in BindingDB's records for doi:10.1016/S0893-133X(97)00112-7 (H. Lundbeck, 1998).

Sequences of proteins named here, by UniProt entry; tags and fusion partners are left off.
UniProt P10980, whole entry: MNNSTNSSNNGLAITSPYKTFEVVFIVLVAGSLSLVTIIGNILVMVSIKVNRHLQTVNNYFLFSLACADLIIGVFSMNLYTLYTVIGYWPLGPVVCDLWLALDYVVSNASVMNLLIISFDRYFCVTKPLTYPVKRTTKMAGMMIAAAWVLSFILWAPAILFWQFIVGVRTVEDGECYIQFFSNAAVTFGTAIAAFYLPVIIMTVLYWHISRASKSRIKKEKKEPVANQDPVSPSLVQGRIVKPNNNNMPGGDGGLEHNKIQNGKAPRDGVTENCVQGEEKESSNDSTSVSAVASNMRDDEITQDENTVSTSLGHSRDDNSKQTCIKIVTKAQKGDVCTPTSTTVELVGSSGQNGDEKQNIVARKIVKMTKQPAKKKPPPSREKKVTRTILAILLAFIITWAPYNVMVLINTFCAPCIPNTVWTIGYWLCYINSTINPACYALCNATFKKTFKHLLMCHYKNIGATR

Target: Muscarinic acetylcholine receptor M2 (Rattus norvegicus, UniProt P10980)

Ki: 2.1 nM
SMILES: Cc1cc2c(s1)=Nc1ccccc1NC=2N1CCN(C)CC1 [CAS_132539-06-1]
